Source: patent US8470352B2, “Magnesium compositions and uses thereof for metabolic disorders” (Magceutics, Inc., priority 2007, dated 2013)

How the values were obtained:
[1] = Magnesium absorption rate in rats (urine and feces magnesium by ICP-AES, linear regression); conditions: Examples 5 and 6, gluconate in skim milk or 5 weight percent lactose water, chloride and threonate in water
Description: Fifty 3-month old, male Sprague Dawley (SD) rats were divided into five groups of ten rats. Rats of this age and older are considered adult. Each of the rats was placed in a separate metabolic cage equipped with urine- and feces-collecting wells. All of the rats were maintained in a temperature-controlled room (22° C. to 25° C.) with a dark period from 08:00 pm to 08:00 am daily. From day 1 through day 3, each rat was fed daily 15 g of magnesium-free food and de-ionized water. […] The medium was skim milk for Composition 1 and Group 1, milk prepared from powdered milk, by diluting the powdered milk with water to obtain a composition like that of skim milk, for Composition 2 and Group 2, 1% milk cream in water for Composition 3 and Group 3, water comprising 5 weight percent lactose for Composition 4 and Group 4, and water for the Control Composition and Control Group. […]
From day 4 through day 10, urine from each rat was collected daily. The collected urine from each rat was then pooled together and the total volume of the pooled urine from each rat was recorded. The pooled urine from each rat, in an amount of […], was analyzed for magnesium content using an inductively coupled plasma-atomic emission spectrometer (ICP-AES). […] The pooled feces from each rat, in an amount of 0.5 g, were analyzed for magnesium content using an ICP-AES. […]

[2] = compared with magnesium lactate and magnesium citrate; cited from earlier work

Substance: magnesium gluconate
- magnesium absorption rate at relatively low dosage [1]: suitable
- solubility in water or an aqueous medium [2]: comparatively better than that associated with either magnesium lactate or magnesium citrate
